# Data taken from patent US6299861A, “Ipratropium bromide enantiomer with prolonged duration of effect” (Boehringer Ingelheim KG, priority 1995, dated 2001).
# Assays:
# [1] = system: CHO-HM receptors; settings: compared with racemate
# [2] = system: acetylcholine-induced bronchospasm; experiment: Inhibition of acetylcholine-induced bronchospasm in the anaesthetised dog after administration by inhalation; settings: eutomer:racemate weight ratio 1:2
compound,measurement,setting,value
"CC(C)[N+]1(C)C2CCC1CC(OC(=O)C(CO)c1ccccc1)C2 (single isomer, unassigned) [BIIH 150 BR, (endo, syn)-(-)-3-(3-hydroxy-l-oxo-2-phenylpropoxy)-8-methyl-8-(1-methylethyl)-8-azoniabicyclo [3,2,1]octane]",affinity relative to the racemate,[1],approximately twice as high
same,duration of activity compared with the racemate,[2],considerably longer duration of activity
same,potency compared with the racemate,[2],higher potency
